System: NADPH
Experiment: cells, lysate or membranes named
Details: other: recombinant AdhA in cell extracts of P. furiosus strain A, 50 mM Mops pH 7.5, 2 mM DTT, 70° C., nonlinear regression

## T. X514 AdhA (Thermoanaerobacter ethanolicus)
  Km: 31 µM

— US20150275238A1, “GENETICALLY ENGINEERED MICROBES AND METHODS FOR CONVERTING ORGANIC ACIDS TO ALCOHOLS” (UNIVERSITY OF GEORGIA RESEARCH FOUNDATION, INC., priority 2014, published 2015)
